## Ab-14 heavy chain CDR variants: yeast mating affinities

Reference: Engelhart et al. 2022, doi:10.1038/s41597-022-01779-4. File: FLAb, binding data.

The target is the same throughout: PDVDLGDISGINAS, from the HR2 region of SARS-CoV-2 spike.

Each scFv is VH, a (GGGGS)3 linker, VL, as in the parent Ab-14, and differs from it in the CDRs of the heavy chain only.
VH: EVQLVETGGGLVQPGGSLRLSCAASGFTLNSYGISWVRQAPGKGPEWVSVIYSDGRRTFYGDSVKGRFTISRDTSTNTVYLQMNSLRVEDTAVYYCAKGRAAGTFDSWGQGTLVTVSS
VL: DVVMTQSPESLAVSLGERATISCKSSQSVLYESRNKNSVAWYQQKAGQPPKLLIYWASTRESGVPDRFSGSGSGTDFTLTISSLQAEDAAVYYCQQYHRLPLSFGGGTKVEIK

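The parent was found by panning a naive human phage display library on the peptide. Library AAYL49 holds single substitutions and randomly drawn double and triple substitutions in the CDRs. Affinity was read by AlphaSeq, a pooled yeast mating assay with surface-displayed partners. The frequency of each diploid, read from paired DNA barcodes, reflects how well the two displayed proteins bind. Each replicate has its own calibration line, from reference interactions of the BCL2 family. The assay was run in three technical replicates.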

Positions count from residue 1 of the parent VH; Y52P puts P in place of Y.
All variants listed here change D54 of the VH, counted from its first residue.
Values are apparent Kd, the geometric mean of the replicates that gave a signal; lower means stronger binding.
An entry "nd" has no value in the source: the pair was not observed among the diploids in any replicate. This suggests poor binding but is not conclusive.
As a blank, each scFv also met three strains without target: over library AAYL49, 15% of these pairings were detected, typically at 11 µM and seldom below 680 nM. For each scFv, signals with the empty controls are counted beside the result.

With Y52P/D54R/F59I the result was 4.5 µM (1 of 3 replicates; controls 0 of 9).
With I51G/D54W/T58L the result was nd (0 of 3 replicates; controls 1 of 9).
With D54H/A102V/T104W the result was nd (0 of 3 replicates; controls 0 of 9).
With D54A/A102K the result was nd (0 of 3 replicates; controls 1 of 9).
With V50K/D54S the result was nd (0 of 3 replicates; controls 1 of 9).
With L29S/D54E/R56S the result was nd (0 of 3 replicates; controls 1 of 9).
With Y52C/D54T/Y60E the result was 7.0 µM (2 of 3 replicates; controls 4 of 9).
With D54G/R56L/G103N the result was nd (0 of 3 replicates; controls 2 of 9).
With T28G/D54W/V64S the result was 71 µM (1 of 3 replicates; controls 0 of 9).
With D54N/R57M the result was 3.6 µM (3 of 3 replicates; controls 3 of 9).
With D54T/G99K/F105I the result was nd (0 of 3 replicates; controls 0 of 9).
With T28V/D54N/A102W the result was 12 µM (1 of 3 replicates; controls 1 of 9).
With D54I/G55L/G103N the result was nd (0 of 3 replicates; controls 0 of 9).
With D54S/V64Y/R100Q the result was nd (0 of 3 replicates; controls 0 of 9).
With G26K/D54I the result was nd (0 of 3 replicates; controls 1 of 9).
With D54L/R57N/R100G the result was 1.2 µM (1 of 3 replicates; controls 0 of 9).
With F27R/D54C/S107K the result was nd (0 of 3 replicates; controls 0 of 9).
With F27Y/D54S/D106H the result was 94 µM (3 of 3 replicates; controls 6 of 9).
With D54G/A102W/T104N the result was nd (0 of 3 replicates; controls 2 of 9).
With I34C/D54K/R100E the result was 7.1 µM (1 of 3 replicates; controls 1 of 9).
With D54P/Y60K/A101E the result was 81 µM (1 of 3 replicates; controls 3 of 9).
With N30T/D54A the result was nd (0 of 3 replicates; controls 0 of 9).
With G33A/Y52K/D54L the result was 20 µM (2 of 3 replicates; controls 3 of 9).
With N30W/S53T/D54Q the result was nd (0 of 3 replicates; controls 0 of 9).
With D54Y/G99Q/S107F the result was 13 µM (1 of 3 replicates; controls 2 of 9).
With D54P/Y60N/G103K the result was nd (0 of 3 replicates; controls 0 of 9).
With G26A/D54L/F105Q the result was 14 µM (1 of 3 replicates; controls 1 of 9).
With S35L/D54T/R56D the result was 2.8 µM (1 of 3 replicates; controls 1 of 9).
With F27R/D54G/A101S the result was nd (0 of 3 replicates; controls 0 of 9).
With S35C/I51K/D54W the result was nd (0 of 3 replicates; controls 1 of 9).
With I34V/D54V/A101T the result was 33 µM (1 of 3 replicates; controls 1 of 9).
With S31A/D54T/D62E the result was 5.8 µM (2 of 3 replicates; controls 6 of 9).
With L29V/I34R/D54R the result was nd (0 of 3 replicates; controls 3 of 9).
With F27G/D54H/A101H the result was 10 µM (2 of 3 replicates; controls 0 of 9).
With D54P/S63T/R100V the result was nd (0 of 3 replicates; controls 2 of 9).
With D54A/D62M the result was nd (0 of 3 replicates; controls 1 of 9).

The closing 5 entries, repeated:

With S31A/D54T/D62E the result was 5.8 µM (2 of 3 replicates; controls 6 of 9).
With L29V/I34R/D54R the result was nd (0 of 3 replicates; controls 3 of 9).
With F27G/D54H/A101H the result was 10 µM (2 of 3 replicates; controls 0 of 9).
With D54P/S63T/R100V the result was nd (0 of 3 replicates; controls 2 of 9).
With D54A/D62M the result was nd (0 of 3 replicates; controls 1 of 9).

For reference, the parent read 4.4 nM as the reference entry and 13 µM (one replicate of three) as a member of this library.